# Source: publication PMC4019635 (PLoS ONE, 2014)
# Molecular target: T1, RDLbd (Drosophila melanogaster, UniProt P25123)
# T1 sequence (P25123 45-606): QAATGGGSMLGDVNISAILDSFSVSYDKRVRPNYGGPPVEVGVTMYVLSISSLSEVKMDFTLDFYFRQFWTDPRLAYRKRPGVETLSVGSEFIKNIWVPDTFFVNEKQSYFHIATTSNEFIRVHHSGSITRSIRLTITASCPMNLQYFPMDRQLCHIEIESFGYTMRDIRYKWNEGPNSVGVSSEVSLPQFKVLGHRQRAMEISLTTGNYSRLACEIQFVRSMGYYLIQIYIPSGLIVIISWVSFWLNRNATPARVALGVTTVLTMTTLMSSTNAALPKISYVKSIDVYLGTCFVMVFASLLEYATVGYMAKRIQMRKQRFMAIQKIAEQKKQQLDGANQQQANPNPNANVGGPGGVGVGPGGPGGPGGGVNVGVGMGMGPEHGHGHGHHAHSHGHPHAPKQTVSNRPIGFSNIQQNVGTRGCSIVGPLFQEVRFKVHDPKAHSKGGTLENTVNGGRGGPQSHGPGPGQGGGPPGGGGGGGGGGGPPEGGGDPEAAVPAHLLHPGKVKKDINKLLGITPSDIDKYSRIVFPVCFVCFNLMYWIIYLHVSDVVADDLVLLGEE
# Type: cell-based
compound,measurement,value
"CC[C@H](C)[C@H]1O[C@]2(CC[C@@H]1C)C[C@@H]1C[C@@H](C/C=C(\C)[C@@H](O[C@H]3C[C@H](OC)[C@@H](O[C@H]4C[C@H](OC)[C@@H](O)[C@H](C)O4)[C@H](C)O3)[C@@H](C)/C=C/C=C3\CO[C@@H]4[C@H](O)C(C)=C[C@@H](C(=O)O1)[C@]34O)O2 [IVM, ivermectin]",response when applied alone,no response
